Assay results from PubChem BioAssay AID504692 (The Scripps Research Institute Molecular Screening Center, 2011).
The entries are a selection whose mix differs from that of the whole data set. Activity calls are given as the source filed them. No stated cut-off is given here; in the data, active means activation mostly above about 9.5% (no sharp cut-off); inactive means mostly below about 7.6%.

By UniProt entry, the sequences of proteins in these tests, tags left out.
UniProt P47898, whole entry, looked up: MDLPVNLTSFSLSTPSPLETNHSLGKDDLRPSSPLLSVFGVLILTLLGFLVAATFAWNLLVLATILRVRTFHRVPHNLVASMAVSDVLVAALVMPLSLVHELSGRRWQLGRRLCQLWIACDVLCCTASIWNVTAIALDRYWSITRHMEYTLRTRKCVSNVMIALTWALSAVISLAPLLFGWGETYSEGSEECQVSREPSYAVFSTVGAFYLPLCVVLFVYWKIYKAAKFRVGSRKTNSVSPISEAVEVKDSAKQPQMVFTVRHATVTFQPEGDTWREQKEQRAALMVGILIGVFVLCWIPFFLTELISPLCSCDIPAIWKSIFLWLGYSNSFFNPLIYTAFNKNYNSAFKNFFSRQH

target: 5-hydroxytryptamine receptor 5A (Homo sapiens) (UniProt P47898); assay: activation of human 5-HT5A receptor – cell-based, luminescence, full-deck HTS, counter-screen for OPRM1-OPRD1 heterodimer agonist project, primary screen (AID 504692); settings: HTR5A agonist assay, at 9.3 µM, stronger effect = higher value;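 further: 0% = cells with vehicle only and 100% = reference agonist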

| SMILES | activation |
| --- | --- |
| Cc1ccccc1Cn1c(=O)c2c(nc3n2CCN3Cc2ccco2)n(C)c1=O | inactive: 3.38% |
| CC1CCCCC1NC(=O)Cn1cnc2c1c(=O)n(C)c(=O)n2C (stereo not drawn) | inactive: -2.38% |
| Cc1nc2ccccc2n1CC(=O)N/N=C/c1cccs1 | inactive: -0.83% |
| CSCC[C@H](NC(=O)N1CCn2c1nc1ccccc12)C(=O)N[C@H](Cc1ccccc1)C(=O)O | inactive: 8.1% |
| COC(=O)c1ccccc1NC(=O)Cn1cnc2cc(C)c(C)cc21 | inactive: -2.39% |
| Cc1ccc(NP(=O)(Oc2ccccc2)Oc2ccccc2)nc1 | inactive: 5.52% |
| CC1CC(C)CN(C(=O)Cn2c(-c3nonc3N)nc3ccccc32)C1 (stereo not drawn) | inactive: 3.56% |
| O=[N+]([O-])c1ccc(NC2CCN(Cc3ccccc3)CC2)c([N+](=O)[O-])c1 | inactive: 0.3% |
| Cc1csc2ncnc(NC3CCN(Cc4ccccc4)CC3)c12 | inactive: 3.08% |
| Cn1c(=O)[nH]c(=O)c2c1nc(CN1CCN(Cc3ccccc3)CC1)n2CC(N)=O | inactive: -1.88% |
| N=c1n(CCN2CCCCC2)c2ccccc2n1CC(O)COc1ccccc1 (stereo not drawn) | inactive: -5.55% |
| COC(=O)c1ccc(NC(=O)Cn2c(-c3nonc3N)nc3ccccc32)cc1 | inactive: 1.86% |
| Cc1ccc(OCC(O)Cn2c(=N)n(CCN3CCOCC3)c3ccccc32)cc1 (stereo not drawn) | inactive: -3.67% |
| O=[N+]([O-])c1cc([N+](=O)[O-])c(CCNc2ccccc2)c([N+](=O)[O-])c1 | inactive: -1.99% |
| CCc1nc2c(n1)c1c(non1O)c1c2no[n+]1[O-] | inactive: -2.82% |
| Cn1c(=O)c2c(ncn2CC(=O)NC(C)(C)C)n(C)c1=O | inactive: 3.88% |
| CCN(Cc1ccccc1)C(=O)Cn1c(C(C)O)nc2ccccc21 (stereo not drawn) | inactive: 0.87% |
| COc1ccc(CN(C)C(=O)Cn2cnc3c(NCc4ccccc4)ncnc32)cc1OC | inactive: -1.87% |
| CC(C)(C)C(=O)NC(Sc1ccncn1)C(Cl)(Cl)Cl (stereo not drawn) | inactive: 0.83% |
| CSCC[C@H](NC(=O)N1CCn2c1nc1ccccc12)C(=O)N[C@@H](C(=O)O)c1ccccc1 | inactive: 0.74% |
| CCCCc1nc2ccccc2n1CC(=O)NN | inactive: -2.71% |
| c1ccc(CN2CCC(Nc3ncnc4sccc34)CC2)cc1 | inactive: 0.64% |
| O=[N+]([O-])c1ccc2c(c1)nc1n2CCN(CC2CCCO2)C1 (stereo not drawn) | inactive: -3.28% |
| CN(C)C(=O)Cn1c(=O)n(S(=O)(=O)c2ccccc2)c2ccccc21 | inactive: 3.41% |
| C/C(=N\NC(=O)Cn1cnc2ccccc21)c1cccs1 | inactive: -6.8% |
| CSc1nc2ccccc2n1CC(=O)N1CCCCC1 | inactive: -9.2% |

| SMILES | activation |
| --- | --- |
| Cn1c(=O)c2c(ncn2CC(=O)Nc2ccc(N3CCOCC3)cc2)n(C)c1=O | inactive: 6.03% |
| C/C(=N\NC(=O)Cn1c(-c2ccccn2)nc2ccccc21)c1ccccc1 | inactive: -4.36% |
| CC(C)OC(=O)c1ccc(NC(=O)Cn2c(-c3nonc3N)nc3ccccc32)cc1 | inactive: 2.67% |
| Cc1ccc2c(c1)C1CN(C)CCC1N2C(=O)Nc1cccc(C(F)(F)F)c1 (stereo not drawn) | inactive: -2.4% |
| CSCC[C@H](NC(=O)N1CCn2c1nc1ccccc12)C(=O)NCc1ccco1 | inactive: 0.01% |
| CC(C)(C)NC(=O)Cn1c(SCC(=O)N2CCCCCC2)nc2ccccc21 | inactive: 7.6% |
| O=[N+]([O-])c1ncn(CCn2ncnc2[N+](=O)[O-])n1 | inactive: 0.4% |
| Cn1c(=O)c2ncn(CC(=O)Nc3nc(-c4ccc(Cl)cc4)cs3)c2n(C)c1=O | inactive: 2.34% |
| CCCn1c(=O)[nH]c(=O)c2c1nc(-c1ccc(OC(F)F)cc1)n2CCN1CCOCC1 | inactive: 3.25% |
| CCOc1ccc(NC(=O)CN(C)C(=O)Cn2cnc3c2c(=O)n(C)c(=O)n3C)cc1OCC | inactive: 2.86% |
| CC(C)C[C@H](NC(=O)N1CCn2c1nc1ccccc12)C(=O)NCC1CCCO1 (stereo partly drawn) | inactive: -2.96% |
| CSc1nc(N)nc2c1ncn2CC(=O)N1CCN(c2ccccn2)CC1 | inactive: 0.29% |
| CC1CCCN(Cc2nc3c(c(=O)n(C)c(=O)n3C)n2CC(N)=O)C1 (stereo not drawn) | inactive: 3.21% |
| O=S(=O)(Cc1ccccc1)N1CCn2c(nc3ccccc32)C1 | inactive: -1.74% |
| CCN(CC)S(=O)(=O)c1ccc(NC2CCN(Cc3ccccc3)CC2)nc1 | inactive: -1.31% |
| CN1CCN(c2nc3c(c(=O)n(C)c(=O)n3C)n2CC(N)=O)CC1 | inactive: 5.77% |
| COC(=O)C1(C)COP(=O)(Nc2ccccc2)OC1 (stereo not drawn) | inactive: -0.33% |
| COc1ccc(Cc2nc3ccccc3n2CC(=O)N/N=C/c2ccc(O)cc2)cc1OC | inactive: -0.21% |
| O=[N+]([O-])c1cccc(NC2=NCC(CBr)S2)c1 (stereo not drawn) | inactive: -0.84% |
| CC(C)Sc1nc2ccccc2n1CC(N)=O | inactive: -2.26% |
| CCOC(=O)N1CCN(c2c(NC3CCN(Cc4ccccc4)CC3)c(=O)c2=O)CC1 | inactive: -3.21% |
| CN(C)C1(c2nnnn2-c2ccc(Cl)cc2)CCCCC1 | inactive: 8.4% |
| O=C(Cn1cnc2ccccc21)N1CCN(S(=O)(=O)c2ccccc2)CC1 | inactive: 0.57% |
| Cc1nn(CC(=O)Nc2ccc3c(c2)nc2n3CCN(C3CCCCC3)C2)c(=O)c2ccccc12 | inactive: 5.91% |
| O=[N+]([O-])c1ccc(NC2CCN(Cc3ccccc3)CC2)c2ccncc12 | inactive: 6.6% |
| Cc1noc(C)c1S(=O)(=O)N(CC(=O)N1CCn2c1nc1ccccc12)c1ccc(C(C)C)cc1 | inactive: -1.66% |

| SMILES | activation |
| --- | --- |
| O=C(c1ccccc1Br)N1CCn2c1nc1ccccc12 | inactive: -1.36% |
| Cc1cccc(NC(=O)Cn2c(/C=C/c3ccccc3)nc3ccccc32)c1 | inactive: -2.08% |
| O=C(O)CNc1ccc([As](=O)(O)O)cc1 | inactive: 0.84% |
| COC(=O)c1ccc(N2C(=O)CC(N3CCC(n4c(=O)[nH]c5ccccc54)CC3)C2=O)cc1 (stereo not drawn) | inactive: 7.99% |
| O=C1CCC(=O)N1c1ccc(NC2CCN(Cc3ccccc3)CC2)c([N+](=O)[O-])c1 | inactive: -1.98% |
| COc1cccc(CNC(=O)CCNC(=O)N2CCn3c2nc2ccccc23)c1 | inactive: -1.21% |
| CCc1nc2ccccc2n1CC(=O)NC1CCS(=O)(=O)C1 (stereo not drawn) | inactive: 0.31% |
| COc1cccc(NC(=O)Cn2c(-c3cncs3)nc3ccccc32)c1 | inactive: -2.26% |
| Cc1cc(NC(=O)CSc2nc3ccccc3n2CC(=O)N2CCCCC2)no1 | inactive: -0.13% |
| Cc1ccc(-c2csc(N3CCN(c4cc5c(cc4Cl)nc(C)n5CCN4CCCCC4)CC3)n2)cc1 | inactive: 8.4% |
| Cn1c(=O)c2c(nc(CN3CCN(c4ccc(F)cc4)CC3)n2CCN2CCOCC2)n(C)c1=O | inactive: 1.37% |
| COc1cc(NC(=O)Cn2c(-c3cncs3)nc3ccccc32)cc(OC)c1OC | inactive: 1.49% |
| O=C(CCCN1CCC2(CC1)C(=O)NCN2c1ccccc1)c1ccc(F)cc1 | inactive: 0.68% |
| COC(=O)C[C@H](NC(=O)Cn1cnc2c(SC)nc(N)nc21)C(=O)OC | inactive: 3.96% |
| Cn1c(=O)c2c(nc(NCCc3ccccc3)n2CC(=O)NCCc2ccccc2)n(C)c1=O | inactive: 3.51% |
| COc1ccc(Cc2nnc(NC(=O)Cn3cnc4c3c(=O)n(C)c(=O)n4C)s2)cc1 | inactive: 3.28% |
| CC(C)Oc1cccnc1N(C)C1CCN(Cc2ccccc2)CC1 | inactive: -2.62% |
| CCN(CC)CCn1c(=N)n(CC(O)c2ccco2)c2ccccc21 (stereo not drawn) | inactive: 4.92% |
| Cc1ccc2c(c1)C1CN(C)CCC1N2CC(=O)N(C)c1ccccc1 (stereo not drawn) | inactive: 6.23% |
| N#CCC(=O)N/N=C\c1ccccc1OC/C=C/c1ccccc1 | inactive: -3.6% |
| CCOC(=O)Nc1ccc2c(c1)nc1n2CCN(CCOC)C1 | inactive: 6.27% |
| COCCCNC(=O)Cn1cnc2c(OCc3ccccc3)ncnc21 | inactive: 3.78% |
| Cc1ccc2c(c1)C1CN(C)CCC1N2C(=O)c1cccnc1Cl (stereo not drawn) | inactive: -7.17% |
| CSc1nc(N)nc2c1ncn2CC(=O)N[C@H](CO)Cc1c[nH]c2ccccc12 | inactive: -3.07% |
| Cc1ccc2c(c1)C1CN(C)CCC1N2C(=O)Nc1ccc(Cl)cc1 (stereo not drawn) | inactive: 3.69% |
| O=P1(N(CCCl)CCCl)OCCCS1 (stereo not drawn) | inactive: 0.05% |

| SMILES | activation |
| --- | --- |
| O=[N+]([O-])c1ccccc1NC1CCN(Cc2ccccc2)CC1 | inactive: 5.48% |
| CC(C)[C@H](NC(=O)N1CCn2c1nc1ccccc12)C(=O)N[C@H](C(=O)O)c1ccccc1 | inactive: 2.01% |
| O=C(Cn1cnc2ccccc21)NCCCN1CCOCC1 | inactive: -2.95% |
| Cn1c(=O)n(Cc2ccc(Cl)cc2)c(=O)c2c1nc1n2CCN1Cc1ccco1 | inactive: 2.98% |
| Cn1c(=O)c2ncn(CC(=O)NC3CCCCCC3)c2n(C)c1=O | inactive: -6.17% |
| CC(C)[C@H](NC(=O)N1CCn2c1nc1ccccc12)C(=O)NCc1ccc2c(c1)OCO2 | inactive: 5.51% |
| COc1ccc(CNC(=O)Cn2cnc3c(=O)n(C)c(=O)n(C)c32)cc1 | inactive: 0.78% |
| Cn1c(=O)[nH]c(=O)c2c1nc(SCc1ccccc1Cl)n2CC(N)=O | inactive: -0.82% |
| Cc1ccc2c(c1)[C@@H]1CN(C)CC[C@@H]1N2S(=O)(=O)c1ccc(F)cc1 | inactive: -11.6% |
| COc1ccccc1NS(=O)(=O)c1cc(NC(=O)Cn2cnc3c2c(=O)n(C)c(=O)n3C)ccc1C | inactive: 0.52% |
| O=C(c1ccco1)N1CCn2c1nc1ccccc12 | inactive: 2.6% |
| COc1ccc(Cc2nc3ccccc3n2CC(=O)N/N=C/c2ccccc2)cc1OC | inactive: 4.34% |
| Cn1c(=O)n(CC(=O)Nc2ccccc2)c2ccccc21 | inactive: 0.99% |
| O=C(Nc1cc([As](=O)(O)O)ccc1O)c1ccccc1 | inactive: 6.56% |
| Cc1cc(C)c(CN2CCN(C(=O)Cn3cnc4c(OCc5ccccc5)ncnc43)CC2)c(C)c1 | inactive: 0.62% |
| C=CCc1cccc(CNc2nc3ccccc3n2CCN2CCOCC2)c1O | inactive: 4.93% |
| COc1ccc(N2CCn3c2nc2c3c(=O)n(CCCc3ccccc3)c(=O)n2C)c(OC)c1 | inactive: -2.02% |
| COc1ccccc1CNc1nc2ccccc2n1CCN1CCCCC1 | inactive: 0.44% |
| c1ccc(CN2CCC3(CC2)Nc2ccccc2S3)cc1 | inactive: -4.12% |
| COc1ccc(CNc2nc3ccccc3n2CCN2CCCCC2)c(OC)c1 | inactive: 3.57% |
| CCSc1nnc(NC(=O)Cn2cnc3c2c(=O)n(C)c(=O)n3C)s1 | inactive: -0.13% |
| Cc1nc2cc(C(F)(F)F)ccc2n1C1CCN(Cc2nnnn2Cc2ccc3c(c2)OCO3)CC1 | inactive: -8.02% |
| CC1CN(Cc2nc3c(c(=O)[nH]c(=O)n3C)n2CC(N)=O)CC(C)O1 (stereo not drawn) | inactive: 3.96% |
| Cn1c(=O)[nH]c(=O)c2c1nc(CN1CCN(c3ccccc3F)CC1)n2CC(N)=O | inactive: -0.37% |
| Cc1ccc(CNC(=O)CCNC(=O)N2CCn3c2nc2ccccc23)cc1 | inactive: 0.33% |
